Article PMC12144893, “Synthesis and Characterization of Photoswitchable Covalent Ligands for the β2‐Adrenoceptor” (Angewandte Chemie (International Ed. in English), 2025)
Where two headings read alike, the source gives them in different places. One block for each compound: values may come before it.

Target: β2AR mutant K97^2.68C (Homo sapiens, UniProt P07550, K97C)
Experiment: BRET biosensor β-arrestin 2 recruitment (enhanced bystander CAAX) after covalent binding, washing, propranolol block and photoswitching
Assay type: cell-based
Set-up: expressed in transfected cells; host or cells: HEK-293T
Details: for Emax: relative to norepinephrine
From the text: To assess covalent binding to the receptor and subsequent switching of the bound isomer within the binding site, we developed a bioluminescence resonance energy transfer (BRET)‐based biosensor system expressing an RLuc‐tagged β‐arrestin 2 and GFP‐tagged enhanced bystander protein CAAX in HEK293T cells. The assay allowed us to determine receptor‐stimulated recruitment of β‐arrestin to β2AR and the bystander protein CAAX, both located in the cell membrane.^[ [30] ^] To facilitate covalent binding, 1 µM of the Z‐isomers of 1–9 were pre‐incubated with cells for 90 min. After washing to remove all reversibly‐bound ligands and blocking with propranolol, activation properties were determined following a 15‐min incubation. To identify specific agonist effects of the Z‐ and E‐isomers, cells were treated in two different ways after the blocking step. Specifically, half of the cells were kept in the dark to preserve the Z‐isomer, while the second half was irradiated with light at 528 nm to induce switching from the Z‐ to the E‐isomer. […]
resonance energy transfer (HTRF) was determined using the CLARIOstar® plate reader (BMG, Ortenberg, Germany) (Filter set: donor: 620-10 nm; acceptor: 665 -10 nm). Data was analyzed by calculating the ratio of acceptor emission to donor emission. FRET ratio was normalized to the effect […]
the equation for non-linear regression (dose-response curves (four parameters)). Mean values are the result of three to five independent experiments each done in duplicates.
Bioluminescence Resonance Energy Transfer (BRET) assay for recruitment of β −arrestin For BRET assays microplates were coated with poly-D-Lysin (Sigma- Aldrich, Taufkirchen, Germany; MW: 70,000-150,000, 0.1 mg/mL aqueous solution) to improve cell adhesion. HEK-293T cells were transiently transfected applying the PEI reagent as described above. Determination of receptor mediated β -arrestin recruitment was performed by addition of 1 µM of test compound to the cells followed by incubatio n fo r 90 min. Preincubation was terminated by removing the incubation solution followed by a washing step with HBSS buffer. Buffer containing 10 µM pro prano lol was added to block all free binding sites. One half of the wells were kept in the dark, the second half was irradiated at 5 28 nm fo r 1 20 s to enable the switching of the Z -isomer to the E -isomer. Incubation was continued for 10 min and 3 µM of coelenterazine 400a was added for further 5 min. All incubation steps were […]
buffer to derive reference values for normalization. BRET was monitored on a Clariostar plate reader (BMG, Ortenberg, Germany) with the appropriate filter sets (donor 410/80 nm , accepto r 515/ 30 nm ) and was calculated as the ratio of acceptor emission to donor emission. […] BR ET rat io w as […]
values are the result of 3-12 independent experiments each done in quadruplicates. Significance of Emax after switching the test compound from the Z - to the E -i so me r and from E to Z was analyzed by paired t-test in Prism 10.2. The threshold for significance was set as 99% confidence interval an d […]
2.1. Biological Characterization
2.1.1. IP-One Assay on Functional Activity of the Photoswitches 1-9 at the
Functional activity of the photoswitches 1-9 were determined in the E- and Z-isomer applying an IP accumulation assay.[1] HEK 293T cells were transiently co-transfected with the plasmids of the human β 2 receptor and the hybrid G protein Gαqs. […]
compounds in the in the range from 70 -108 % (Figure 4, Table S1). The BI-167107 derivatives 3 -6, 8, […]
Figure S38. Evaluation of recepto r activation for norepine phr ine a nd ep ine phr ine at t he β 2 wt and the mutan t β 2 K972.68C.
An IP accumulation assay in HEK293T cells transi ent ly transf ected with β 2 wt or β 2 K972.68C and the hybri d G-prote in Gαqs was conducted to get dose- respo nse curves as mea n from 10-14 indivi dual e xp erime nts with β 2 wt and 5-6 si ngle […]

[1] = 1 µM Z-isomer pre-incubated 90 min, washed, propranolol, kept in dark or irradiated at 528 nm, range, read-out: Emax
[2] = covalently bound Z-isomer (1 µM, 90 min, washed, propranolol, kept in dark), read-out: Emax

ΔE (efficacy increase) (E to Z, irradiation at 365 nm, paired analysis, 6 experiments): 20%
Compound: Cc1nn(CCCCCSSCCN)c(C)c1/N=N/c1ccc(CCNCC(O)c2ccc(O)c3c2OCC(=O)N3)cc1 (racemic) [Compound E-6]

Emax (covalently bound Z-isomer (1 µM, 90 min, washed, propranolol, kept in dark)): 51%
reduction of receptor activation (covalently bound Z-isomer irradiated at 528 nm (Z to E), paired analysis): 16%
Compound: Cc1nn(CCCCCSSCCN)c(C)c1/N=N\c1ccc(CCNCC(O)c2ccc(O)c3c2OCC(=O)N3)cc1 (racemic) [Compound Z-6]

Emax [1]: 2 to 19%
Compound: Cc1nn(CCSSCCN(C)C)c(C)c1/N=N/c1ccc(CCNC[C@H](O)c2ccc(O)c(O)c2)cc1 [Compound 1, (R,E)-4-(2-((4-((1-(2-((2-(Dimethylamino)ethyl)disulfaneyl)ethyl)-3,5-dimethyl-1H-pyrazol-4-yl)diazenyl)phenethyl)amino)-1-hydroxyethyl)benzene-1,2-diol]

Emax [1]: 2 to 19%
Compound: Cc1nn(CCCSSCCN(C)C)c(C)c1/N=N/c1ccc(CCNC[C@H](O)c2ccc(O)c(O)c2)cc1 [Compound 2]

Emax [2]: 52%
Compound: Cc1nn(CCCCSSCCN)c(C)c1/N=N/c1ccc(CCNCC(O)c2ccc(O)c3c2OCC(=O)N3)cc1 (stereo not drawn) [Compound 5]

Emax (E-isomer formed from covalently bound Z-isomer by irradiation at 528 nm, read-out: Emax): 38%
Emax [2]: 51%
Compound: Cc1nn(CCCCCSSCCN)c(C)c1/N=N/c1ccc(CCNCC(O)c2ccc(O)c3c2OCC(=O)N3)cc1 (stereo not drawn) [Compound 6]

Emax [1]: 2 to 19%
Compound: Cc1nn(CCN2C(=O)C=CC2=O)c(C)c1/N=N/c1ccc(CCNC[C@H](O)c2ccc(O)c(O)c2)cc1 [Compound 7]
